In patent US7268212B2, “Ligand of G protein-coupled receptor protein and DNA thereof” (Takeda Pharmaceutical Company Limited, priority 2001, dated 2007):

Target: T1, GPR7 (Homo sapiens, UniProt P48145)
T1 sequence (P48145 1-328): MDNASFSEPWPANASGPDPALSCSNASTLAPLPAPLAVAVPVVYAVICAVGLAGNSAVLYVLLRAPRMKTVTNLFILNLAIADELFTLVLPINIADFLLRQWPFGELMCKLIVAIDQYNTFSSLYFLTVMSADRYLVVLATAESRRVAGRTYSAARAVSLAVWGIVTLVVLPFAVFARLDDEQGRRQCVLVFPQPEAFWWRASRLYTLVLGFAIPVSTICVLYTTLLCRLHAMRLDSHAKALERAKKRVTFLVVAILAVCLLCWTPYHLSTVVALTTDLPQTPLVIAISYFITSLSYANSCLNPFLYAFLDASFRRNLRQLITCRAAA
Experiment: Intracellular cAMP production suppression activity on human GPR7-expressed CHO cells
Assay type: cell-based
Design: The synthetic primers were constructed so as to amplify the gene in the region to be translated to its receptor protein; expressed in transfected cells; host or cells: CHO cells, membrane fraction
Conditions: forskolin-promoted cAMP production; receptor-expressed CHO cells; read-out: IC50 (nM) human GPR7, cAMP production inhibition
Description: The intracellular cAMP production suppression activity of peptides associated with various GPR7 ligands on CHO cells, in which human GPR7, bovine GPR8, human GPR8, human GPR8, bovine GPR8 and rat GPR7 were expressed, was examined. […] An assay buffer was prepared by adding 20 mM HEPES, pH7.4, 0.1% bovine serum albumin and 0.2 mM 3-isobutyl-1-methylxanthine (Sigma) to Hanks' Balanced Salt Solution (Gibco BRL). The plate incubated overnight was first washed twice with 150 μl of the assay buffer, and then exchanged with 150 μl of the assay buffer, followed by incubation for 30 minutes at 37° C. in 100% air. By adding 4 μM forskolin to the assay buffer, a buffer for sample dilution was prepared and the stock solution (10^−2 M of 10^−3 M) was diluted with the buffer thus obtained to prepare sample solutions in final concentrations of 10^−6 M, 10^−7 M, 10^−8 M, 10^−9 M and 10^−10 M. The plate incubated with the assay buffer for 30 minutes was taken out. After washing twice with the assay buffer, 50 μl of the assay buffer and then 50 μl of the sample solution were added thereto. Each sample was assayed in triplet. […] A difference between the maximum cAMP level and the cAMP level when each sample was added was calculated and the percentage of cAMP production level promoted by forskolin was worked out, which was made the cAMP production inhibition rate.

IC50: 0.58 nM
SMILES: CC(C)C[C@H](NC(=O)CNC(=O)[C@H](CO)NC(=O)[C@H](CC(C)C)NC(=O)[C@H](CC(C)C)NC(=O)CNC(=O)[C@H](C)NC(=O)[C@H](C)NC(=O)[C@H](CCCNC(=N)N)NC(=O)CNC(=O)[C@@H](NC(=O)[C@H](CO)NC(=O)[C@H](Cc1ccc(O)cc1)NC(=O)[C@H](CO)NC(=O)[C@H](CO)NC(=O)[C@H](Cc1c[nH]cn1)NC(=O)CNC(=O)[C@H](C)NC(=O)[C@H](C)NC(=O)[C@@H]1CCCN1C(=O)[C@H](CCCCN)NC(=O)[C@H](Cc1ccc(O)cc1)NC(=O)[C@@H](N)Cc1c[nH]c2ccccc12)C(C)C)C(=O)O [Trp1-human GPR7L(23)]
